Results from patent US6497872B1, “Neural transplantation using proliferated multipotent neural stem cells and their progeny” (NeuroSpheres Holdings Ltd., priority 1991, dated 2002).

Test system: Primary striatal cells
Assay: Striatum-derived neurosphere proliferation in response to proliferative and regulatory factors (Example 43, Paradigm 1)
Assay type: cell-based, mouse
Parameters: key to Size of neurospheres compared to PROLIFERATIVE FACTORS alone: ++: much larger; +: larger; =: approximately the same size; ˜: variable in size; −: smaller; −−: much smaller
Details: for Numbers of neurospheres generated (#): decrease (−) or increase (+) per well compared with absence of the REGULATORY FACTOR: 10-12 days
Experimental: Paradigm 1: Primary striatal cells prepared as outlined in Example 1 were suspended in Complete Medium, without growth factors, plated in 96 well plates (Nunclon) and incubated as described in Example 4. Following a one hour incubation period, a specific proliferative factor, or a combination of proliferative factors including EGF, or bFGF (recombinant human bFGF: R & D Systems), or a combination of EGF and bFGF, or EGF plus FGF plus heparan sulfate (Sigma), or bFGF plus heparan sulfate made up in Complete Medium at a concentration of 20 ng/ml for each of the growth factors and 2 μg/ml for heparan sulfate), was added to each well of the plate.
Activin, BMP-2, TGF-β, IL-2, IL-6, IL-8, MIP-1∂, MIP-1β, MIP-2 (all obtained from Chiron Corp.), TNFα, NGF (Sigma), PDGF (R&D Systems), EGF and CNTF (R. Dunn and P. Richardson, McGill University) were made up in separate flasks of compete medium to a final concentration of 0.2 μg/ml. Retinoic acid (Sigma) was added at a concentration of 10^−6 M. 10 μl of one of these regulatory factor-containing solutions was added to each proliferative factor-containing well of the 96 well plates. Control wells, containing only proliferative factors, were also prepared.
[…] None of these regulatory factors, with the exception of EGF, when used in the absence of a proliferation-inducing factor such as EGF or FGF, has an effect on neural stem cell proliferation.
The activin, BMP-2, TGF-β. IL-2, IL-6, IL-8, MIP-1∂, MIP-1β, MIP-2, TNFα and EGF additions were repeated every second day, CNTF which was added each day and retinoic acid, NGF and PDGF were added only once, at the beginning of the experiment. The cells were incubated for a period of 10-12 days. The number of neurospheres in each well was counted and the resulting counts tabulated using Cricket Graph III. Other relevant information regarding sphere size and shape were also noted.

[1] = PROLIFERATIVE FACTORS EGF + bFGF
[2] = PROLIFERATIVE FACTORS EGF + bFGF + Heparan
[3] = PROLIFERATIVE FACTORS bFGF + Heparan

B1: BMP-2: bone morphogenic protein (BMP-2), Chiron Corp. (protein, UniProt P12643 283-396, looked up)
Bone morphogenetic protein 2: QAKHKQRKRLKSSCKRHPLYVDFSDVGWNDWIVAPPGYHAFYCHGECPFPLADHLNSTNHAIVQTLVNSVNSKIPKACCVPTELSAISMLYLDENEKVVLKNYQDMVVEGCGCR
B1 was tested, and the “Numbers of neurospheres generated (#): decrease (−) or increase (+) per well compared with absence of the REGULATORY FACTOR” value (PROLIFERATIVE FACTOR EGF 20 ng/ml) was −100%, the “Size of neurospheres compared to PROLIFERATIVE FACTORS alone” value (PROLIFERATIVE FACTOR bFGF) was “=” and the “Numbers of neurospheres generated (#): decrease (−) or increase (+) per well compared with absence of the REGULATORY FACTOR” value (PROLIFERATIVE FACTOR bFGF 20 ng/ml) was −5%. The “Size of neurospheres compared to PROLIFERATIVE FACTORS alone” value [1] was “−−”, the “Size of neurospheres compared to PROLIFERATIVE FACTORS alone” value [2] was “−−” and the “Numbers of neurospheres generated (#): decrease (−) or increase (+) per well compared with absence of the REGULATORY FACTOR” value [2] was “+10%”. The “Numbers of neurospheres generated (#): decrease (−) or increase (+) per well compared with absence of the REGULATORY FACTOR” value [1] was “+16%”, the “Size of neurospheres compared to PROLIFERATIVE FACTORS alone” value [3] was “−” and the “Numbers of neurospheres generated (#): decrease (−) or increase (+) per well compared with absence of the REGULATORY FACTOR” value [3] was −3%. The “neurosphere proliferation in response to EGF” value (dose of 10 ng/ml) was “completely abolished neurosphere proliferation”.
